By UniProt entry, the sequences of proteins in these tests, tags left out.
UniProt Q12809, whole entry: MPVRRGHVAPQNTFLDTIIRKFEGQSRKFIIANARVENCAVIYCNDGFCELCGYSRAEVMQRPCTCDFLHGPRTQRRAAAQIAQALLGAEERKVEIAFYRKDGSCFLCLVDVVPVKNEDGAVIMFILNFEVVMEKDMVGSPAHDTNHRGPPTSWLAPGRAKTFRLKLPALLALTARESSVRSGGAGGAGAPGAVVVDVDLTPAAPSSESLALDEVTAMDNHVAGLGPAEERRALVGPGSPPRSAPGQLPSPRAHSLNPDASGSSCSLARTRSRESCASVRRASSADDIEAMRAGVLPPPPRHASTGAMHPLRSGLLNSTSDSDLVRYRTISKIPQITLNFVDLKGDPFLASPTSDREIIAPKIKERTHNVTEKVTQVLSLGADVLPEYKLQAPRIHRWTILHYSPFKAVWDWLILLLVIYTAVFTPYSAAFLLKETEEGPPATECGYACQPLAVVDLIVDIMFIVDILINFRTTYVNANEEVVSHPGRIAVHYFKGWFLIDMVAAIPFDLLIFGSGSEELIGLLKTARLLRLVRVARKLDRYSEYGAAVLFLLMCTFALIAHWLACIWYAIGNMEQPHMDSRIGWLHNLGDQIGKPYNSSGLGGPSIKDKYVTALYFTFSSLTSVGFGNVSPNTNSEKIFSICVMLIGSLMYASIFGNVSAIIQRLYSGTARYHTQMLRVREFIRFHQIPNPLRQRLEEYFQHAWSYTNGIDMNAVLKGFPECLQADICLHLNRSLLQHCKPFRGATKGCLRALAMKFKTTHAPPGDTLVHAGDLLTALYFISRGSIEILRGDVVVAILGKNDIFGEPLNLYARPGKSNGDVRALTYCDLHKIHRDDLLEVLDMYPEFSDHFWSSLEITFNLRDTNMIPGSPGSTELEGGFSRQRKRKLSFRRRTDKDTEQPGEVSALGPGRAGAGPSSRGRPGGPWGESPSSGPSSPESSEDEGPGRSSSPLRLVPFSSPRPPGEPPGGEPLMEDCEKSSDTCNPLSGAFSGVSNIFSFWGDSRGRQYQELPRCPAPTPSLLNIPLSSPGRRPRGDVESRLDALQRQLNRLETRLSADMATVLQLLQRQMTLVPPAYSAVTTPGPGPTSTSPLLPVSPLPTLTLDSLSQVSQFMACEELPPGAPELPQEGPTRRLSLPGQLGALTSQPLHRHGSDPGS
UniProt P05177, whole entry: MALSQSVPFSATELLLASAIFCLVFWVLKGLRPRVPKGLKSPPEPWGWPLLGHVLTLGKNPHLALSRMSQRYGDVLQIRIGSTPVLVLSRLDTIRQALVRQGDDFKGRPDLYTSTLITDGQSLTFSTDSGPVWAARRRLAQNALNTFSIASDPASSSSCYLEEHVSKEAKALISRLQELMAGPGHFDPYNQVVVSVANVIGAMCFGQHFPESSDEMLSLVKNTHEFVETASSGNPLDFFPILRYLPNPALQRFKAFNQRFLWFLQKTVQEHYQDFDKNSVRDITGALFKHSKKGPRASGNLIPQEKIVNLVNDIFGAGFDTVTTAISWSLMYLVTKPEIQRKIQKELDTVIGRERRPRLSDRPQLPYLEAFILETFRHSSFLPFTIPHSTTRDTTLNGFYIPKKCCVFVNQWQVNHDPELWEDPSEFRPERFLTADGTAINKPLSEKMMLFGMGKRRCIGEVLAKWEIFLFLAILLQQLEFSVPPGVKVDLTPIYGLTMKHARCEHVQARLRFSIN
UniProt P20813, whole entry: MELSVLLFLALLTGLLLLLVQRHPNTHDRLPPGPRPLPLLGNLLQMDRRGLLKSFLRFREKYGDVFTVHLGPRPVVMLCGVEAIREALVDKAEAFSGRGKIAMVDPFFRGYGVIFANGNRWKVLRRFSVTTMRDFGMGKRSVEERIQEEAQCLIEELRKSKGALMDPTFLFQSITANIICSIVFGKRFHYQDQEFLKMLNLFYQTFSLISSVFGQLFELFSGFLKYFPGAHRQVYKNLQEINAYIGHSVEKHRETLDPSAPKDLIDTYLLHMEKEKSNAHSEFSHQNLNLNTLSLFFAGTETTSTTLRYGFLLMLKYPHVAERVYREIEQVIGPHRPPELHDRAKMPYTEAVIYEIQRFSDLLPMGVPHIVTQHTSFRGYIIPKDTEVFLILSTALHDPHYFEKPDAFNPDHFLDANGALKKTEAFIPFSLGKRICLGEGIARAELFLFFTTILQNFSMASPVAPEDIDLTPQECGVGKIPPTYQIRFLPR
UniProt P11712, whole entry: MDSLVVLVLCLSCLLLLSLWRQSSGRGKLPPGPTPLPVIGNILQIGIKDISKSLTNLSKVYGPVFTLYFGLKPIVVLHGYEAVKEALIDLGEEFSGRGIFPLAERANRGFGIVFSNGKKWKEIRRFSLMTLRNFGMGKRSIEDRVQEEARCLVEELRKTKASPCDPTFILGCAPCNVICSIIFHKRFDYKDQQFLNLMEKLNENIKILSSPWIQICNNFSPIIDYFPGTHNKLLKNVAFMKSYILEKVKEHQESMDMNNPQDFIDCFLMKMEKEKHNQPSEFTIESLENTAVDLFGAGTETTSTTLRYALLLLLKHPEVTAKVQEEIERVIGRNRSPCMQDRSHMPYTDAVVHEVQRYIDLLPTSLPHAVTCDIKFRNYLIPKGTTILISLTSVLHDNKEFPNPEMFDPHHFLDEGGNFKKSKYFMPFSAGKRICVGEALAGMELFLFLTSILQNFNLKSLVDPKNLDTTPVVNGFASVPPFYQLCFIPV
UniProt P10632, whole entry: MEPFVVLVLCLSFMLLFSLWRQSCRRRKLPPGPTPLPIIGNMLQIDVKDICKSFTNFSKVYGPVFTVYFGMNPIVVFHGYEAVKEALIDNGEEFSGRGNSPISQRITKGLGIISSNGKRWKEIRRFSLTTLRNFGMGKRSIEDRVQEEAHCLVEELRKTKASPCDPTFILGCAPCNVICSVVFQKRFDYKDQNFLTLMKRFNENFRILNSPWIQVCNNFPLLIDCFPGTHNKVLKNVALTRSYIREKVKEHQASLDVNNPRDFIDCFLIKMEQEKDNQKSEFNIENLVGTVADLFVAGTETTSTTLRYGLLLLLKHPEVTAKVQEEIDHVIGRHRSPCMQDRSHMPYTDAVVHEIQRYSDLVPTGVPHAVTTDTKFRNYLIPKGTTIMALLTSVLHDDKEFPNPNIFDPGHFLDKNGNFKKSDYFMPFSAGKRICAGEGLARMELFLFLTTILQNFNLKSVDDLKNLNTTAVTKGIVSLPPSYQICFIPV
UniProt P10635, whole entry: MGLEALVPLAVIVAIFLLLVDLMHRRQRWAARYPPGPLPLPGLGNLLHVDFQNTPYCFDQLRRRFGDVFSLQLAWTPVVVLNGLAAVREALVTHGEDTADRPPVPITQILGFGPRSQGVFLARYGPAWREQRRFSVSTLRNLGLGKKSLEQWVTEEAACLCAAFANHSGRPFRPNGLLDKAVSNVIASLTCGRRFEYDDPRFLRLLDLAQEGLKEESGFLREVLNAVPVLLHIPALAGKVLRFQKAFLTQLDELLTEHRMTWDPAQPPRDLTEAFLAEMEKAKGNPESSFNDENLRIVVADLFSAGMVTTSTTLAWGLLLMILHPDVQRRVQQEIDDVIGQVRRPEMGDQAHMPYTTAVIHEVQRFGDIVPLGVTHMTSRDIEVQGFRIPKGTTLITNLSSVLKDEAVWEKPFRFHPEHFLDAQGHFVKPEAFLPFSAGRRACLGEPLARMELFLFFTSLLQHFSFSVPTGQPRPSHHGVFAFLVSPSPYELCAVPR
UniProt P33261, whole entry: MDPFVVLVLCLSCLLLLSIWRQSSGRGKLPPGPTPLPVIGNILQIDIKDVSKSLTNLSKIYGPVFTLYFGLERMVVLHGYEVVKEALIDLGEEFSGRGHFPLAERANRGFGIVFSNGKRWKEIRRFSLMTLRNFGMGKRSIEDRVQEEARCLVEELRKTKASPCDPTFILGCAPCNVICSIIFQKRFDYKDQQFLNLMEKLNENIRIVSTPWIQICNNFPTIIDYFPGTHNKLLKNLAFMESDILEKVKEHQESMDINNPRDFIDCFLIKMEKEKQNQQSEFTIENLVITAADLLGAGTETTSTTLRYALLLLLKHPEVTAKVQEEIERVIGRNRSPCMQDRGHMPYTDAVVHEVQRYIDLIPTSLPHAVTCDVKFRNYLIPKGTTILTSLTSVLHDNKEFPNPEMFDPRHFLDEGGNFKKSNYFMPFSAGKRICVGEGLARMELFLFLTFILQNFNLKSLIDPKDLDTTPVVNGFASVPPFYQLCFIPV

According to EP4834906A1, “PYRAZOLOPYRIMIDINE COMPOUND AND PHARMACEUTICAL USE THEREOF” (dated 2026):

Tests used:
[1] = Metabolic stability in rat liver microsomes (NADPH + UDPGA); details: rat liver microsomes 1.0 mg/mL, NADPH and UDPGA, 37°C
Excerpt: (§1) A certain amount of anhydrous sodium dihydrogen phosphate was weighed into a centrifuge tube, followed by addition of an appropriate amount of ultrapure water with vortex mixing to prepare a 0.1 mol/L sodium dihydrogen phosphate solution for later use. A certain amount of anhydrous disodium hydrogen phosphate was weighed into a centrifuge tube, followed by addition of an appropriate amount of ultrapure water with vortex mixing to prepare a 0.1 mol/L disodium hydrogen phosphate solution for later use. The sodium dihydrogen phosphate solution (0.1 mol/L) and the disodium hydrogen phosphate solution (0.1 mol/L) were mixed at a ratio of 19:81 (v:v) in a reagent bottle, and mixed thoroughly to obtain a 100 mmol/L phosphate buffer (PB) (concentration calculated based on phosphate ion concentration), which was stored at 2 to 8°C for later use.
(§2) An appropriate amount of NADPH was precisely weighed into a 1.5 mL centrifuge tube, followed by addition of an appropriate amount of PB with vortex mixing to prepare a 40 mmol/L NADPH solution, which was placed on ice for later use. An appropriate amount of UDPGA was precisely weighed into a 1.5 mL centrifuge tube, followed by addition of an appropriate amount of PB with vortex mixing to prepare a 40 mmol/L UDPGA solution, which was placed on ice for later use. Equal volumes of the NADPH and UDPGA solutions were pipetted into the same centrifuge tube with vortex mixing to prepare a mixture of NADPH and UDPGA (containing 20 mmol/L NADPH and 20 mmol/L UDPGA), which was placed on ice for later use.
(§3) An appropriate amount of testosterone reference standard was precisely weighed and dissolved in DMSO with vortex mixing to prepare a 20 mmol/L testosterone stock solution, which was stored in a -20°C freezer. An appropriate amount of 7-hydroxycoumarin reference standard was precisely weighed and dissolved in DMSO with vortex mixing to prepare a 20 mmol/L 7-hydroxycoumarin stock solution, which was stored in a -20°C freezer. Equal volumes of the testosterone and 7-hydroxycoumarin stock solutions were pipetted into the same 1.5 mL centrifuge tube and diluted with 50% methanol-water to prepare a 20 µmol/L mixed substrate working solution, which was placed on ice for later use. […]
(§4) The study consisted of three groups: a positive control group (PC), a negative control group (NC), and a treatment group. […] The remaining amount of test compound in the sample was quantified by LC-MS/MS. Metabolic stability of the test compounds in liver microsomes was evaluated by comparing compound concentrations at different reaction times were compared with those measured at T0. […]

[2] = Metabolic stability in human liver microsomes (NADPH + UDPGA); details: human liver microsomes 1.0 mg/mL, NADPH and UDPGA, 37°C
Excerpt: as §1, §2, §3, §4

[3] = Metabolic stability in mouse liver microsomes (NADPH + UDPGA); details: mouse liver microsomes 1.0 mg/mL, NADPH and UDPGA, 37°C
Excerpt: as §1, §2, §3, §4

[4] = In vivo pharmacokinetics in rats; details: male SD rats, PO, 5 mg/kg; for AUC / Cmax / t1/2: plasma
Description: Male SD rats were fasted overnight (with free access to drinking water) and divided into an intravenous administration (IV) group and an intragastric administration (PO) group. For the IV group, blood samples (approximately 0.3 mL of blood per sample) were collected from the orbital venous plexus at 2 min, 10 min, 30 min, 1 h, 2 h, 4 h, 6 h, 8 h, and 24 h following administration. The samples were anticoagulated with disodium ethylenediaminetetraacetate (EDTA-2Na), placed on ice immediately after collection, and centrifuged at 4°C for 10 minutes within 1 hour to separate the plasma, which was stored at - 20°C for analysis. For the PO group, blood samples (0.3 mL) were collected from the orbital venous plexus at 5 min, 15 min, 30 min, 1 h, 2 h, 4 h, 6 h, 8 h, and 24 h following administration. Sample processing was identical to that used for the IV group. Plasma concentrations of the parent compounds were determined by LC-MS/MS. Pharmacokinetic parameters were calculated using Phoenix WinNonlin 8.1 based on plasma concentration-time data collected at different time points. Table 5: Results of in vivo pharmacokinetic studies of selected compounds in rats

human hERG ion channels = human hERG ion channels (Homo sapiens, UniProt Q12809); test: hERG current inhibition, conventional patch clamp in HEK293 cells; details: percentage inhibition of the hERG current at 10 µM
Description: The inhibitory effects of compounds on human hERG ion channels stably expressed in HEK293 cells were evaluated using conventional patch-clamp techniques. Test compounds were prepared at a concentration of 10 µM. Each cell served as its own control. All compounds were perfused using a gravity-driven perfusion system. After stabilization of the hERG current, the current magnitudes before and after compound addition were compared for each cell. The percentage inhibition of the hERG current by each compound was then calculated. Table 3: Percentage inhibition of the hERG current by compounds

CYP1A2 = CYP1A2 (Homo sapiens, UniProt P05177); test: CYP450 inhibition in human liver microsomes; details: CYP1A2, substrate Phenacetin, human liver microsomes 0.2 mg/mL, incubation 15 min
Description: (§5) Disodium hydrogen phosphate was dissolved in ultrapure water by sonication to prepare a 100 mM solution (designated as Solution A). Potassium dihydrogen phosphate was dissolved in ultrapure water by sonication to prepare a 100 mM solution (designated as Solution B). Solution B was slowly added to Solution A under stirring until the pH reached 7.4. The phosphate buffer was stored at 4°C for later use. Ultrapure water was produced using a Sartorius ultrapure water system.
(§6) The positive control was prepared as a 10 mM DMSO stock solution. The volume ratio of the organic solvent introduced into the assay system along with the test compound was 1.0%.
(§7) Substrate stock solutions were prepared as shown in Table 7 below and stored in a - 20°C freezer. The stock solutions were thawed at room temperature before use.
(§8) Compound 4 hydrochloride was prepared as a 5 mM DMSO stock solution. The volume ratio of the organic solvent introduced into the assay system along with the test compound was 1.0%.
(§9) Human liver microsomes were purchased from BIOIVT (Cat. No. 452117, Lot No. SEU). The stock concentration was 20 mg/mL. The working concentration of the human liver microsomes and the final concentration in the reaction system are shown in Table 9 below.
(§10) Prior to the experiment, 13.14 mg of NADPH (Roche, Cat. No. 10107824001, Lot No. 71466624) was weighed and dissolved in 1.545 mL of PB to prepare a 10 mM working solution. The final concentration of NADPH in the assay system was 1 mM.
(§11) 7. All incubations were performed in a 1.5 mL centrifuge tube. First, 2 µL of the Compound 4 hydrochloride working solution or positive control working solution was added to the corresponding centrifuge tube. For the inhibitor-free group, 2 µL of DMSO:MeOH (1:1) solvent was added. Subsequently, 20 µL of the mixed substrate working solution and 158 µL of the liver microsome working solution were added. The mixture was pre-incubated in a water bath at 37°C for 5 minutes. The reaction was initiated by adding 20 µL of NADPH cofactor. The mixture was then further incubated at 37°C for the designated periods (see Table 10). All samples were prepared in duplicate.
(§12) After incubation, the reaction was terminated by adding 400 µL of ice-cold stop solution (methanol containing 1 ng/mL LMTA). The samples were vortexed and centrifuged at 17000 g and 4°C for 10 minutes. 180 µL of the supernatant was transferred into a 96-well plate for LC-MS/MS analysis.
(§13) Relative activity was calculated using the following equation: Relative activity (NC) = amount of metabolite produced in the treatment group or positive control group / average amount of metabolite produced in the negative control group; Inhibition (%) = (1 - NC) × 100%. Table 10: Inhibitory effect of Compound 4 hydrochloride on CYP450 isoforms

CYP2B6 = CYP2B6 (Homo sapiens, UniProt P20813); test: CYP450 inhibition in human liver microsomes; details: CYP2B6, substrate Bupropion HCl, human liver microsomes 0.2 mg/mL, incubation 45 min
Description: as §5, §6, §7, §8, §9, §10, §11, §12, §13

CYP2C9 = CYP2C9 (Homo sapiens, UniProt P11712); test: CYP450 inhibition in human liver microsomes; details: CYP2C9, substrate Diclofenac, human liver microsomes 0.2 mg/mL, incubation 15 min
Description: as §5, §6, §7, §8, §9, §10, §11, §12, §13

CYP2C8 = CYP2C8 (Homo sapiens, UniProt P10632); test: CYP450 inhibition in human liver microsomes; details: CYP2C8, substrate Amodiaquine HCl, human liver microsomes 0.2 mg/mL, incubation 15 min
Description: as §5, §6, §7, §8, §9, §10, §11, §12, §13

CYP2D6 = CYP2D6 (Homo sapiens, UniProt P10635); test: CYP450 inhibition in human liver microsomes; details: CYP2D6, substrate Dextromethorphan HBr, human liver microsomes 0.2 mg/mL, incubation 20 min
Description: as §5, §6, §7, §8, §9, §10, §11, §12, §13

CYP2C19 = CYP2C19 (Homo sapiens, UniProt P33261); test: CYP450 inhibition in human liver microsomes; details: CYP2C19, substrate S-Mephenytoin, human liver microsomes 0.5 mg/mL, incubation 45 min
Description: as §5, §6, §7, §8, §9, §10, §11, §12, §13

[5] = 28-day oral gavage toxicity evaluation in SD rats; details: oral gavage 30 and 100 mg/kg, 28 days
Description: Eight male and eight female SD rats were randomly divided into groups as follows: normal control group (2 rats per sex), low-dose group (3 rats per sex per group), and high-dose group (3 rats per sex per group). The low-dose and high-dose groups received Compound 4 hydrochloride solutions at concentrations of 3 and 10 mg/mL (calculated as the free base) by oral gavage, respectively. The administration volume was 10 mL/kg, corresponding to doses of 30 and 100 mg/kg, respectively. The normal control group received an equivalent volume of vehicle (water). During the experiment, the rats had free access to drinking water and were administered continuously for 28 days. On the day following the final administration, blood samples were collected for measurement of 23 routine hematological and biochemical parameters. Gross necropsy examinations were performed on the heart, liver, spleen, lungs, kidneys, brain, gastrointestinal tract, thymus, testes (or ovaries), and other organs.

SMILES | 60-min remaining (%) Rat [1] | 60-min remaining (%) Human [2] | 60-min remaining (%) Mouse [3] | F (%) [4] | AUC [4] | Cmax [4] | t1/2 [4] | hERG% at 10 µM (human hERG ion channels) | Inhibition (%) at 10 µM (CYP1A2) | Inhibition (%) at 10 µM (CYP2B6) | Inhibition (%) at 10 µM (CYP2C9) | Inhibition (%) at 10 µM (CYP2C8) | Inhibition (%) at 10 µM (CYP2D6) | Inhibition (%) at 10 µM (CYP2C19) | Gross pathological examination of organs (surface color, shape, size, texture) [5] | Hematological and biochemical parameters compared with the normal group [5] | effect on body weight [5] | toxic reactions [5]
C#Cc1cc(C)c(-n2cc3cnc(N[C@@H]4CCCN(C)C4)nc3n2)c(O)c1 | 94.68% | 95.34% | 92.13% | – | – | – | – | – | – | – | – | – | – | – | – | – | – | –
Cc1cc(C(F)(F)F)cc(O)c1-n1cc2cnc(N[C@@H]3CCCN(C)C3)nc2n1 | 97.99% | 93.10% | 93.99% | 74.8% | 38296.3 ng·h/mL | 5442.0 ng/mL | 4.05 h | 27.7% | 11.5% | 21.8% | -0.4% | 7.1% | -1.6% | 9.7% | no significant pathological changes | no significant abnormalities | no significant effect on body weight | no obvious toxic reactions were observed
Cc1cc(Cl)cc(O)c1-n1cc2cnc(N[C@@H]3CCCN(C)C3)nc2n1 | 86.09% | 86.56% | 82.57% | 99.8% | 8804.2 ng·h/mL | 1934.7 ng/mL | 2.95 h | 9.3% | – | – | – | – | – | – | – | – | – | –
Cc1cc(C2CC2)cc(O)c1-n1cc2cnc(N[C@@H]3CCCN(C)C3)nc2n1 | 88.14% | 88.14% | 95.62% | – | – | – | – | – | – | – | – | – | – | – | – | – | – | –
